In patent publication US20150105409A1, “HDAC INHIBITORS, ALONE OR IN COMBINATION WITH BTK INHIBITORS, FOR TREATING NONHODGKIN'S LYMPHOMA” (Acetylon Pharmaceticals, Inc., priority 2013, published 2015):

Tested on: Mino MCL cells
Assay: CellTiter-Blue cell viability, combination (CI analysis)
Assay type: cell-based, human
Settings: 72 hours, single agent, at Fa of combination dose 10.0E−6/25.0E−6
Method: Z138 and Mino MCL cells were treated with varying concentrations of Compound A and the BTKi Ibrutinib for 72 hours. Cell viability was next assessed using the CellTiter-Blue reagent (Promega). The results of these experiments are shown in FIG. 8 and in the Table below.

## C=CC(=O)N1CCC[C@@H](n2nc(-c3ccc(Oc4ccccc4)cc3)c3c(N)ncnc32)C1 [ibrutinib, reference compound]
  Dm (PCI-32765): 41.3E−6
